Measurements published in patent US6291496A, “Treating cancers associated with overexpression of class I family of receptor tyrosine kinases” (priority 1999, dated 2001).

How the values were obtained:
Format in all cases: in vivo, human
[1] = test system: HER-2/neu positive breast cancer metastasized to lung and liver; test: Example III: breast cancer metastasized to lung and liver; conditions: patient, oral 5 mg/kg twice daily
Procedure: After three months, the PPARγ ligand administration is continued in combination regimen with Taxol® at a dose of 175 mg/m^2 administered intravenously every three weeks.

[2] = test system: HER-2/neu positive breast cancer metastasized to bone; test: Example IV: breast cancer metastasized to bone; conditions: patient after failure of prior chemotherapy, oral 5 mg/kg twice daily plus HERCEPTIN
Procedure: After 90 days, oral cyclophosphamide at a dose of 3 mg/kg/day and doxorubicin administered intravenously weekly at a dose of 20 mg/m^2, are added to the drug regimen.

[3] = test system: HER-2/neu positive colon cancer; test: Example V: after resection of colon cancer; conditions: patient, oral 5 mg/kg twice daily for five years after resection
[4] = test system: non-small cell lung carcinoma where EGFR is overexpressed; test: Example VI: non-small cell lung carcinoma metastasized to liver; conditions: patient, oral 5 mg/kg twice daily
Procedure: After one month, PPARγ ligand administration is continued in combination with infusion of cisplatin every four weeks at 60 mg/m^2 for 12 more weeks.

[5] = test system: head and neck carcinoma where EGFR is overexpressed; test: Example VII: head and neck carcinoma; conditions: after the 12 weeks of CETUXIMAB and cisplatin, oral 5 mg/kg twice daily for 12 weeks
Procedure: Concurrently cisplatin is infused every four weeks at 60 mg/m^2.

[6] = test system: Stage IV EGFR positive breast cancer tumors; test: Example VIII: breast cancer with Stage IV EGFR positive tumors; conditions: oral 5 mg/kg twice daily in combination with CETUXIMAB and Taxol
[7] = test system: EGFR positive breast cancer; test: Example IX: adjuvant therapy after mastectomy; conditions: patient, oral 5 mg/kg twice daily for five years after mastectomy

SMILES	tumor burden [1]	tumor burden [2]	recurrence of colon cancer [3]	tumor burden [4]	tumor burden [5]	tumor burden [6]	recurrence of breast cancer [7]
CCc1ccc(CCOc2ccc(CC3SC(=O)NC3=O)cc2)nc1 (stereo not drawn) [pioglitazone]	reduced tumor burden	reduced tumor burden	Recurrence of colon cancer does not occur	reduced tumor burden	further reduced tumor burden	reduced tumor burden	Recurrence of breast cancer dose not occur
Cc1c(C)c2c(c(C)c1O)CCC(C)(COc1ccc(CC3SC(=O)NC3=O)cc1)O2 (stereo not drawn) [troglitazone]	reduced tumor burden	reduced tumor burden	Recurrence of colon cancer does not occur	reduced tumor burden	further reduced tumor burden	reduced tumor burden	Recurrence of breast cancer dose not occur
COC(=O)c1ccccc1N[C@@H](Cc1ccc(OCCc2nc(-c3ccccc3)oc2C)cc1)C(=O)O [GW7845, (S)-2-(1-carboxy-2-{4-[2-(5-methyl-2-phenyloxazol-4-yl)ethoxy]phenyl}ethylamino)benzoic acid methyl ester]	reduced tumor burden		Recurrence of colon cancer does not occur			reduced tumor burden	Recurrence of breast cancer dose not occur
